Laboratory results from article PMC10836093, “Ensemble-based design of tau to inhibit aggregation while preserving biological activity” (Research Square, 2024).

Chains of the proteins cited; added tags and fusions are not shown.
UniProt P02550, whole entry, looked up: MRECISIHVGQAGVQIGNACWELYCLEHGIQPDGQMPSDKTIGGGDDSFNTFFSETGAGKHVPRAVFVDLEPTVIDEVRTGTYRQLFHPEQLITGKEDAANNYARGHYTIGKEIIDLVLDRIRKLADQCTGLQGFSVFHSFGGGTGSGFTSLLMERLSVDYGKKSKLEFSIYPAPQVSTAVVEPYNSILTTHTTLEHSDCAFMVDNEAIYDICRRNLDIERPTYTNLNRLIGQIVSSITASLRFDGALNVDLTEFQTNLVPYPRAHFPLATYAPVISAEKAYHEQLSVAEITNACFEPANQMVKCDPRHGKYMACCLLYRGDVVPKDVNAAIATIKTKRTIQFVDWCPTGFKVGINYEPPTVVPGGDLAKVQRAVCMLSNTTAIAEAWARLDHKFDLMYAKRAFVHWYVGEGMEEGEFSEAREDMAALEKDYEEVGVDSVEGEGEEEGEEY

B1: tauRD Turn mutant (domain or fragment, human, UniProt P10636-8 243-380, looked up)
chain: LQTAPVPMPDLKNVKSKIGSTENLKHQPGGGKVQIINKKLDLSNVQSKCGSKDNIKHQPGGGKVQIVYKPVDLSKVTSKCGSLGNIHHKPGGGQVEVKSEKLDFKDRVQSKIGSLDNITHVPGGGNKKIETHKLTFRE
notes: tau repeat domain, human MAPT, 4R tauRD residues 243-380 on 2N4R tau, with V300Q and S305K; without tags; also called Turn mutant tauRD; source: E. coli BL21-Gold (DE3), purified (boiling, HiTrap SP, Superdex 75)
B2: tauRD Full mutant (domain or fragment, human, UniProt P10636-8 243-380, looked up)
chain: B1 chain with D53E, I55L
notes: tau repeat domain, human MAPT, 4R tauRD residues 243-380 on 2N4R tau, with D295E, I297L, V300Q and S305K; without tags; also called Full mutant tauRD; source: E. coli BL21-Gold (DE3), purified (boiling, HiTrap SP, Superdex 75)

What was measured:
tubulin dimer = tubulin dimer (UniProt P02550); experiment: cell-based or functional assay
[1] = target: the molecule itself; experiment: ThT fluorescence aggregation assay; tauRD 5, 10, 20, 40 μM in 1X PBS, 10 mM DTT, induced with 2X heparin, 37 °C; self-assembly into fibrils, t1/2max from fitted curves; fibrils at endpoints seen by TEM

Binder	microtubule polymerization assay, polymerization amplitude (endpoint intensity), fold reduction relative to WT tauRD (tubulin dimer) [fold]	microtubule polymerization assay, t1/2max to endpoint polymerization, 10 μM tauRD with 2 mg/ml tubulin (tubulin dimer) [h]	t1/2max of ThT aggregation at 5 μM [1] [h]	t1/2max of ThT aggregation at 40 μM [1] [h]	microtubule polymerization assay, polymerization amplitude (endpoint intensity), fold increase relative to WT tauRD (tubulin dimer) [fold]
B1	1.5	0.645	97 ± 24	11.1 ± 5.8	
B2		0.588		58.6 ± 22.7	1.5

Residue numbers refer to the chain shown, from its start. Names may count otherwise.
